Data reported in PubChem BioAssay (Tox21).
Values joined by “and” are separate entries in the source; they are usually repeats but may differ in a detail not shown here. Identical values can stand only once. The list shows a part of the results, in another mix than the full data. Inconclusive results are not listed. Active and inactive are the calls of the source. Unless noted, calls follow the shape of the dose curve; as a rule, active = well fitted curve in the direction sought with a large enough effect in the repeat runs; inconclusive = weak or mixed curves; inactive = no such curve, though single readings can be large; an effect the other way counts as inactive or inconclusive.

Chains of the proteins cited; added tags and fusions are not shown.
UniProt P11511, whole entry: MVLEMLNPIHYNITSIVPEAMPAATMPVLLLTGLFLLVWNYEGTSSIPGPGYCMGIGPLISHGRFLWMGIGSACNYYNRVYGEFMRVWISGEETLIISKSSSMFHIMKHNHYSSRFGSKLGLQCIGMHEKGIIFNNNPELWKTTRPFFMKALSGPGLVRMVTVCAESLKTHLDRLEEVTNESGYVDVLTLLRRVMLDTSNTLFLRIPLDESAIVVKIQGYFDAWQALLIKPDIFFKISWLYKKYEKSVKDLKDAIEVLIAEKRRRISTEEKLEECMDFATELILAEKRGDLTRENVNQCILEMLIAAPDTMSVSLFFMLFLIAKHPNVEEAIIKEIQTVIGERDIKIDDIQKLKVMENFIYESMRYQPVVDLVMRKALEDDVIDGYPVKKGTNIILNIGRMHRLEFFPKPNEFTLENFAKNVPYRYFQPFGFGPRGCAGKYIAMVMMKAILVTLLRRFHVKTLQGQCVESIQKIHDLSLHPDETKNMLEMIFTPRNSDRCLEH
UniProt P35869, whole entry: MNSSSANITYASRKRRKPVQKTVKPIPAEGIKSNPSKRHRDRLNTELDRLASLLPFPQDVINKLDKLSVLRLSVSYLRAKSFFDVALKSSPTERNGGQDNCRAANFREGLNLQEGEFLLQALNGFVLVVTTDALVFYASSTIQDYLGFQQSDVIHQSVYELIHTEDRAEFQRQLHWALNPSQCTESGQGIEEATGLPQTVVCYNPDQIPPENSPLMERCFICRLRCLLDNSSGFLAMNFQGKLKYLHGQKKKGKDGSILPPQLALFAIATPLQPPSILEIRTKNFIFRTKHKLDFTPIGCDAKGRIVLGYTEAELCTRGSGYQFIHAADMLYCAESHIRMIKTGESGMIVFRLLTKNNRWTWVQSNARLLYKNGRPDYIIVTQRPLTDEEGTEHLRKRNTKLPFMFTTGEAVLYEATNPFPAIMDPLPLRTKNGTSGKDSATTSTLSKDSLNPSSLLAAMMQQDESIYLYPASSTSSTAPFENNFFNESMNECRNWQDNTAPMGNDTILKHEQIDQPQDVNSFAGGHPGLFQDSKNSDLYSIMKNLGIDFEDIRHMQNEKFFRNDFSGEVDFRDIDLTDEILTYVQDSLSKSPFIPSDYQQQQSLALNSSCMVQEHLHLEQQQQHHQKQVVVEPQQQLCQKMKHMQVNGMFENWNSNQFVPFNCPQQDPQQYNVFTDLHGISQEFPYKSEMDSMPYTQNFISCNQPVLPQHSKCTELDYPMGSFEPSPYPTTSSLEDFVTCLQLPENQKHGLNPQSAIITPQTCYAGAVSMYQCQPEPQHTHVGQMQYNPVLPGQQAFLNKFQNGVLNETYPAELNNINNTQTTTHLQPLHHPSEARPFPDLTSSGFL
UniProt P37231, whole entry: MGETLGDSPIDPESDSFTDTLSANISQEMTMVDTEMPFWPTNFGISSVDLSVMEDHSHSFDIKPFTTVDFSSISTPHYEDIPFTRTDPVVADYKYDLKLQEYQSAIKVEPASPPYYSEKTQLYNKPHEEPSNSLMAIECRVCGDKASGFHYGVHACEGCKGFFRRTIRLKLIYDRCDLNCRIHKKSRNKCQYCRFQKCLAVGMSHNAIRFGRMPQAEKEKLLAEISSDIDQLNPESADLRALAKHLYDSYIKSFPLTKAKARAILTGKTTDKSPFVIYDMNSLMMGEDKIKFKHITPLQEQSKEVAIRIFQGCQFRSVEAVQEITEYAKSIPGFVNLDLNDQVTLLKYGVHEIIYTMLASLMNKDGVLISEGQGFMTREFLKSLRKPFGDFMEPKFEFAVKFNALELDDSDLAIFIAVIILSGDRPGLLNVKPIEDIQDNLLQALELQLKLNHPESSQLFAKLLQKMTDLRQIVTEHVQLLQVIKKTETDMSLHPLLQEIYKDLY
UniProt P10275, whole entry: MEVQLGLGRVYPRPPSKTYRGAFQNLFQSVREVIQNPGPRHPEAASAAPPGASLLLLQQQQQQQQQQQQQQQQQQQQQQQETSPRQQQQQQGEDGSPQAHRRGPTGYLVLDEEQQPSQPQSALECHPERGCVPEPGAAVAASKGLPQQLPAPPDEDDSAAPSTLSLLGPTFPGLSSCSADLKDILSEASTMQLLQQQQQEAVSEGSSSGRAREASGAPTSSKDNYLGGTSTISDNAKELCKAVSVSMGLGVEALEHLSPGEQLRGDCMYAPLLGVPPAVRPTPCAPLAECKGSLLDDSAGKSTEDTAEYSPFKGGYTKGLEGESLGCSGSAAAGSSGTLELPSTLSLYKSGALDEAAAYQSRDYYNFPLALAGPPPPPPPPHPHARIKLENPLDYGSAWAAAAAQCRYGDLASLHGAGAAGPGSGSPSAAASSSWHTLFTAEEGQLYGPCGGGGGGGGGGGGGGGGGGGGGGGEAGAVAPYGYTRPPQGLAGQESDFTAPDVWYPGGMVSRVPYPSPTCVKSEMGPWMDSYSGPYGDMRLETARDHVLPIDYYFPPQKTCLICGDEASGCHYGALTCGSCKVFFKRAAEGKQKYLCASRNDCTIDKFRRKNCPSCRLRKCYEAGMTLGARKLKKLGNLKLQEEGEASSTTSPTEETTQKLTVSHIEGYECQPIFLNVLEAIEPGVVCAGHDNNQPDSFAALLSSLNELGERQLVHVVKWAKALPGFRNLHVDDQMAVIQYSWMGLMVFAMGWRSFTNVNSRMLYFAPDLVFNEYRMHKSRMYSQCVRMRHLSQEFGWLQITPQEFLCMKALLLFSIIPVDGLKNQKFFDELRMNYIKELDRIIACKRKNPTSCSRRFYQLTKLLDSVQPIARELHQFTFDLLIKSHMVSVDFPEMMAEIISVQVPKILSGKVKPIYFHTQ
UniProt P03372, whole entry: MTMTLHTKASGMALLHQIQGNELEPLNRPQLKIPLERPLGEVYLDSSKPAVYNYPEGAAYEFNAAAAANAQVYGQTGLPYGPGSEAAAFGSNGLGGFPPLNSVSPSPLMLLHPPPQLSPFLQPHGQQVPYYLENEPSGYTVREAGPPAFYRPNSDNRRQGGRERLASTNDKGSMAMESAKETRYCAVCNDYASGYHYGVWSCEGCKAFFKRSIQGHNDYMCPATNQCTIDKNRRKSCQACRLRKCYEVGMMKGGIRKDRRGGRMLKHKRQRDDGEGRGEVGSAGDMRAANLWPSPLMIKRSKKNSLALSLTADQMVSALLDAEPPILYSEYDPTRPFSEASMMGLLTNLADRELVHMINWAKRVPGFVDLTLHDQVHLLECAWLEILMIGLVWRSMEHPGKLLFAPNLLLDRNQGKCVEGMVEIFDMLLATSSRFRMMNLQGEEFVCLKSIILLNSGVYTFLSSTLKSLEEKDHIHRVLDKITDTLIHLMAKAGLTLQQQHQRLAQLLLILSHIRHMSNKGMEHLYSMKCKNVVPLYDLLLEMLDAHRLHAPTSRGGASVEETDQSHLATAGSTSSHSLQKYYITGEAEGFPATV

Columns and labels:
[1] = qHTS assay for identifying genotoxic compounds that show differential cytotoxicity against isogenic chicken DT40 cell lines with known DNA damage response pathways - Rad54/Ku70 mutant cell line (AID 743015); also: nearly all actives have a fitted effect of over 60% in size; also: potency is read from the fitted curve at half-maximal effect
[2] = qHTS assay to identify small molecule antagonists of the androgen receptor (AR) signaling pathway using the MDA cell line - cell viability counter screen (AID 743041; also: nearly all actives have a fitted effect of over 45% in size); conditions: MDA-kb2 viability, CellTiter-Fluor, 16 h, cells co-treated with R1881 androgen agonist
In short: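 Cytotoxicity counter screen: MDA-kb2 AR-luc cells, compound + R1881, 16 h, 37C, 0% CO2; CellTiter-Fluor added at 15.5 h, fluorescence read after 30 min.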

[3] = qHTS assay to identify small molecule antagonists of the thyroid receptor (TR) signaling pathway - cell viability counter screen (AID 743064); also: nearly all actives have a fitted effect of over 50% in size; also: potency is read from the fitted curve at half-maximal effect
In short: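 Rat GH3 pituitary tumor cells stably expressing two TR response elements driving luciferase were plated, rested 4 h, then dosed with library compounds and T3 (1 nM final). After 23.5 h at 37 °C, CellTiter-Fluor was added for 30 min and fluorescence recorded.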

[4] = qHTS assay to identify small molecule antagonists of the thyroid receptor (TR) signaling pathway (AID 743065); also: nearly all actives have a fitted effect of over 55% in size; also: potency is read from the fitted curve at half-maximal effect
In short: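 GH3.TRE-Luc rat pituitary cells (two TREs driving luciferase) were dosed with compound, then stimulated with 1 nM T3 (final) for 23.5 h at 37 C. ONE-Glo luminescence was the read-out, with CellTiter-Fluor fluorescence as the cytotoxicity counter-screen.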

[5] = system: thyroid hormone receptor (rat, GH3 cells); test: qHTS assay to identify small molecule agonists of the thyroid receptor (TR) signaling pathway (AID 743066; calls by dose curve); conditions: GH3.TRE-Luc cells, TR agonist luciferase, 24 h
[6] = qHTS assay to identify small molecule antagonists of the estrogen receptor alpha (ER-alpha) signaling pathway - cell viability counter screen (AID 743074; calls by dose curve;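 also: HEK293 cells carrying ER-alpha-UAS-bla reporter stimulated with 17beta-estradiol; nearly all actives have a fitted effect of over 45% in size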); conditions: ERalpha-bla HEK293 viability, CellTiter-Glo luminescence, 18 h; at 69.4 µM (top of the series)
[7] = qHTS assay to identify small molecule antagonists of the estrogen receptor alpha (ER-alpha) signaling pathway using the BG1 cell line - cell viability counter screen (AID 743081);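 also: compound given together with 17beta-estradiol as the ER stimulus; nearly all actives have a fitted effect of over 45% in size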; also: potency is read from the fitted curve at half-maximal effect
Aromatase (Homo sapiens) = Aromatase (Homo sapiens) (UniProt P11511); test: qHTS assay to identify aromatase inhibitors (AID 743083); conditions: MCF-7 aro ERE, testosterone-driven ERE luciferase, 24 h; also: nearly all actives have a fitted effect of over 55% in size
[8] = qHTS assay to identify aromatase inhibitors - cell viability counter screen (AID 743084); conditions: MCF-7 aro ERE viability, CellTiter-Fluor, 24 h;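 also: cells stimulated with testosterone during compound exposure; nearly all actives have a fitted effect of over 55% in size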
[9] = molecular target: Aryl hydrocarbon receptor (Homo sapiens) (UniProt P35869); test: qHTS assay to identify small molecule that activate the aryl hydrocarbon receptor (AhR) signaling pathway (AID 743085);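 also: HG2L7.5c1 human HepG2 liver cells with stably integrated DRE-driven firefly reporter; nearly all actives have a fitted effect of over 15% in size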
[10] = qHTS assay to identify small molecule that activate the aryl hydrocarbon receptor (AhR) signaling pathway - cell viability counter screen (AID 743086); also: nearly all actives have a fitted effect of over 45% in size; also: potency is read from the fitted curve at half-maximal effect;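 as to viability change, negative = cytotoxic: HepG2 liver cells carrying the AhR DRE luciferase reporter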
In short: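 HepG2-AhR-luc (HG2L7.5c1) cells, 4000/well, treated 24 h at 37 C with compound; viability measured as CellTiter-Fluor fluorescence after 30 min in the same wells as the luciferase read.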

[11] = molecular target: Peroxisome proliferator-activated receptor gamma (Homo sapiens) (UniProt P37231); test: qHTS assay to identify small molecule agonists of the peroxisome proliferator-activated receptor gamma (PPARg) signaling pathway (AID 743094; active = well fitted activation curve with a large enough effect in the signal ratio in the repeat runs, not every such curve was filed as active; the % refers to the signal ratio); conditions: HEK293H PPARg-UAS-bla, beta-lactamase FRET ratio, 17 h
In short: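 Agonism was assessed in a beta-lactamase reporter system, HEK293H cells with a stably integrated UAS-bla construct under PPARg control; the 17 h treatment at 37C preceded a 1 h room-temperature FRET substrate read.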

[12] = qHTS assay to identify small molecule antagonists of the peroxisome proliferator-activated receptor gamma (PPARg) signaling pathway - cell viability counter screen (AID 743194); conditions: PPARg-bla HEK293H viability, CellTiter-Glo luminescence, 17 h, co-treated with 50 nM rosiglitazone; also: nearly all actives have a fitted effect of over 55% in size
In short: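 Cytotoxicity counter screen in PPARg-bla HEK293H cells, same wells as reporter assay. Compounds plus 50 nM rosiglitazone (final) for 17 h at 37 C, then viability read by CellTiter-Glo luminescence.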

[13] = molecular target: Androgen receptor (Homo sapiens) (UniProt P10275); test: qHTS assay to identify small molecule antagonists of the androgen receptor (AR) signaling pathway (AID 743035; active = well fitted inhibition curve with a large enough effect in the signal ratio in the repeat runs, not every such curve was filed as active; the % refers to the signal ratio); conditions: HEK293 AR-UAS-bla, R1881-stimulated, beta-lactamase FRET, 16 h; at 58.5 µM (top of the series) unless noted
[14] = molecular target: Androgen receptor (Homo sapiens) (UniProt P10275); test: qHTS assay to identify small molecule agonists of the androgen receptor (AR) signaling pathway (AID 743036; active = well fitted activation curve with a large enough effect in the signal ratio in the repeat runs, with a control signal flat, not every such curve was filed as active; the % refers to the signal ratio); conditions: HEK293 AR-UAS-bla GripTite, beta-lactamase FRET ratio, 16 h; at 62.4 µM (top of the series) unless noted
[15] = molecular target: Androgen receptor (Homo sapiens) (UniProt P10275); test: qHTS assay to identify small molecule agonists of the androgen receptor (AR) signaling pathway using the MDA cell line (AID 743040; also: nearly all actives have a fitted effect of over 20% in size); conditions: MDA-kb2 AR-luc cells, MMTV luciferase, 16 h, active compounds read high; at 70.3 µM (top of the series) unless noted
[16] = molecular target: Androgen receptor (Homo sapiens) (UniProt P10275); test: qHTS assay to identify small molecule antagonists of the androgen receptor (AR) signaling pathway using the MDA cell line (AID 743042; also: nearly all actives have a fitted effect of over 55% in size); conditions: MDA-kb2 AR-luc, MMTV luciferase, R1881 antagonist, 16 h; at 70.3 µM (top of the series) unless noted
[17] = molecular target: Estrogen receptor (Homo sapiens) (UniProt P03372); test: qHTS assay to identify small molecule antagonists of the estrogen receptor alpha (ER-alpha) signaling pathway (AID 743069; active = well fitted curve in the direction sought with a large enough effect in the signal ratio in the repeat runs, not every such curve was filed as active; the % refers to the signal ratio); conditions: HEK293 ER-alpha-UAS-bla, beta-lactamase ratio, antagonist mode
In short: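 Beta-lactamase FRET fluorescence is read after 2 hr at room temperature with LiveBLAzer B/G substrate. Before that, ER-alpha-bla HEK293 cells sit 4 hr after plating, then receive compound plus 17beta-estradiol and incubate 18 hr at 37C.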

[18] = molecular target: Estrogen receptor (Homo sapiens) (UniProt P03372); test: qHTS assay to identify small molecule agonists of the estrogen receptor alpha (ER-alpha) signaling pathway (AID 743075; calls by dose curve;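 also: HEK293 GripTite cells with ER-alpha and UAS-driven beta-lactamase reporter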); conditions: HEK293 ER-alpha-UAS-bla, beta-lactamase FRET ratio, 18 h
[19] = molecular target: Estrogen receptor (Homo sapiens) (UniProt P03372); test: qHTS assay to identify small molecule agonists of the estrogen receptor alpha (ER-alpha) signaling pathway using the BG1 cell line (AID 743079); also: nearly all actives have a fitted effect of over 20% in size
% is scaled to controls: 0 for no effect and ±100 for the full control effect.

CCOP(=O)(CC)OCC
inactive: Potency [1] | viability change, negative = cytotoxic ([2]; at 70.3 µM (top of the series)) 0.716% | Potency [3] | Potency [4] | activation ([5]; at 83.9 µM (top of the series)) 0.152% | activity, negative = cytotoxicity [6] 10.9% | Potency [7] | activity, negative = inhibition (Aromatase (Homo sapiens); at 70.3 µM (top of the series)) -1.26% | activity change, negative = cytotoxicity ([8]; at 70.3 µM (top of the series)) 14.7% | Potency [9] | Potency [10] | activation ([11]; at 57 µM (top of the series)) 6.07% | activity change, negative = cytotoxicity ([12]; at 62.6 µM (top of the series)) 13.8%

CCN(CC)CCCl
inactive: activity change, negative = inhibition [13] -1.34% [at 78.9 µM] | activation [14] -3.69% [at 79.1 µM] | activity change [15] -0.0096% [at 95 µM] | viability change, negative = cytotoxic ([2]; at 95 µM (top of the series)) 4.43% | activity change, negative = inhibition [16] -8.15% [at 95 µM] | activation ([5]; at 95.2 µM (top of the series)) -7.62% | activity, negative = inhibition ([17]; at 79.1 µM (top of the series)) -6.2% | activation ([18]; at 79.1 µM (top of the series)) 0.227% | Potency [19] | Potency [7] | activity, negative = inhibition (Aromatase (Homo sapiens); at 95 µM (top of the series)) -1.26% | activity change, negative = cytotoxicity ([8]; at 95 µM (top of the series)) -20.8% | Potency [9] | Potency [10] | activity change, negative = cytotoxicity ([12]; at 81.1 µM (top of the series)) -2.85%
active: Potency [1] 55.3 µM | Potency [3] 62 µM | Potency [4] 62 µM

Nc1cc([N+](=O)[O-])cc([N+](=O)[O-])c1O
active: Potency [7] 17.6 µM | Potency [10] 24.9 µM
inactive: Potency [1] | Potency [4] | activation ([5]; at 95.2 µM (top of the series)) -4.04% | activation ([18]; at 79.1 µM (top of the series)) -4.3% | Potency [19] | activity, negative = inhibition (Aromatase (Homo sapiens); at 95 µM (top of the series)) -13.6% | Potency [9] | activation ([11]; at 78.9 µM (top of the series)) -6.02% | activity change, negative = cytotoxicity ([12]; at 81.1 µM (top of the series)) 13.9%

CCOP(=O)(CC)Oc1ccc([N+](=O)[O-])cc1 (stereo not given)
inactive: Potency [1] | activation [14] 1.04% | activity change [15] -5.33% | viability change, negative = cytotoxic ([2]; at 70.3 µM (top of the series)) -2.7% | Potency [3] | Potency [4] | activation ([5]; at 83.9 µM (top of the series)) 0.0893% | activity, negative = cytotoxicity [6] -22% | activation ([18]; at 70.1 µM (top of the series)) 4.9% | Potency [19] | activity change, negative = cytotoxicity ([8]; at 70.3 µM (top of the series)) 2.24% | Potency [9] | Potency [10] | activity change, negative = cytotoxicity ([12]; at 62.6 µM (top of the series)) -15.5%

O=[N+]([O-])[O-].[NH4+]
inactive: Potency [1] | viability change, negative = cytotoxic ([2]; at 70.3 µM (top of the series)) -2.15% and 3.03% and 0.102% | Potency [3] | activity, negative = cytotoxicity [6] 9.13% and 12.4% and 25.2% | Potency [7] | Potency [9] | Potency [10] | activation ([11]; at 57 µM (top of the series)) 0.177% and 0.0469% and 2.34% | activity change, negative = cytotoxicity ([12]; at 62.6 µM (top of the series)) 21.5% and -13.3%

CC(C)OP(C)(=O)OC(C)C
inactive: Potency [1] | viability change, negative = cytotoxic ([2]; at 70.3 µM (top of the series)) 5.2% and 2.5% | Potency [4] | activation ([5]; at 83.9 µM (top of the series)) 4.18% and -0.119% | activity, negative = inhibition ([17]; at 69.4 µM (top of the series)) 11.7% and -58.6% | activity, negative = cytotoxicity [6] 5.35% and 15.4% | activation ([18]; at 70.1 µM (top of the series)) 1.91% and -0.729% | Potency [19] | Potency [7] | activity, negative = inhibition (Aromatase (Homo sapiens); at 70.3 µM (top of the series)) -6.22% and -12.3% | activity change, negative = cytotoxicity ([8]; at 70.3 µM (top of the series)) 8.62% and 7.05% | Potency [9] | Potency [10] | activation ([11]; at 57 µM (top of the series)) 0.096% and -0.475% | activity change, negative = cytotoxicity ([12]; at 62.6 µM (top of the series)) -9.09% and 27.7%
